Drawing on ChEMBL document CHEMBL2311348, “The extremo-α-carbonic anhydrase (CA) from Sulfurihydrogenibium azorense, the fastest CA known, is highly activated by amino acids and amines” (Bioorg Med Chem Lett, 2013), this text covers KA for 2 compounds.

The test system of assay [1] is Sulfurihydrogenibium azorense. As to the kind of experiment: Activation of Sulfurihydrogenibium azorense recombinant alpha carbonic anhydrase by stopped flow CO2 hydrase method. In short, it runs like this:
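Full-length recombinant enzyme in a stopped-flow CO2 hydration assay at 25 °C: 0.2 mM phenol red read at its absorbance maximum, 10 mM Hepes pH 7.5, 0.1 M NaClO4, 10 s traces, CO2 1.7–17 mM. Activators were diluted from 10 mM water stocks down to 0.001 µM and preincubated with enzyme for 15 min at room temperature. Uncatalyzed rates were subtracted. kcat was measured at 10 µM activator. KA came from a steady-state equation, mean of ≥3 determinations.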

For assay [2], the system named is Sulfurihydrogenibium yellowstonense. Kind of assay: Activation of Sulfurihydrogenibium yellowstonense recombinant CA by stopped flow CO2 hydrase method.

For `N[C@H](Cc1ccccc1)C(=O)O`, the KA in assay [1] amounted to 0.009 µM; in assay [2] it was 5.13 µM.

For the compound `N[C@@H](Cc1ccccc1)C(=O)O`, the KA in assay [1] was determined as 0.062 µM; in assay [2], 0.008 µM.
